In paper PMC6553764 (PLoS ONE, 2019):

Legend:
Conditions in all cases: both partners purified
[1] = target: T1, Kap95 (UniProt Q06142 1-861); experiment: SPR; FSFG6 immobilised via C-terminal Cys (GLC chip), medium density 550 RU; association 120 s; 100 ul/min, TBT-PVP, 25 C; Langmuir isotherm analysis
T1 construct: Kap95, a karyopherin transport factor; also called Kap95 without the GST domain
T1 sequence (looked up): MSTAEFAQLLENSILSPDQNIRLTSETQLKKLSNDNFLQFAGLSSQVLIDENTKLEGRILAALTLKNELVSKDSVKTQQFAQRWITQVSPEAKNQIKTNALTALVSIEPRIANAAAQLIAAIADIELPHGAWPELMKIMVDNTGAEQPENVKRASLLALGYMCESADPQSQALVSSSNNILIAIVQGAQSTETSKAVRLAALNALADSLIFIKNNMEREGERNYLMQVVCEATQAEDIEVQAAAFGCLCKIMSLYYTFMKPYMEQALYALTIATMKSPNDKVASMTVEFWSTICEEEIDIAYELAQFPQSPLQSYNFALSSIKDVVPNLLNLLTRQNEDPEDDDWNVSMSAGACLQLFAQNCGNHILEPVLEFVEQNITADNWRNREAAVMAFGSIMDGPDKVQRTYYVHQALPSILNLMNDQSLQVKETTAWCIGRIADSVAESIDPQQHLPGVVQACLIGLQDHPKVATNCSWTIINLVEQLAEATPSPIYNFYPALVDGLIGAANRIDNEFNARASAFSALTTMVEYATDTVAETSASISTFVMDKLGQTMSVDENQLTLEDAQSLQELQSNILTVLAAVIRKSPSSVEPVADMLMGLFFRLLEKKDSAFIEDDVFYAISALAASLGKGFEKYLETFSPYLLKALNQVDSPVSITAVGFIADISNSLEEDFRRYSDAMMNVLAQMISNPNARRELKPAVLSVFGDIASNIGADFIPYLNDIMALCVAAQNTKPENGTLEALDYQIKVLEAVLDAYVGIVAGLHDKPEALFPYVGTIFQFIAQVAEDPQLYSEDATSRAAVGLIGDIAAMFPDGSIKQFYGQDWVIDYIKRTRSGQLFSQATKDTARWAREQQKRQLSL

[2] = target: T1, Kap95; experiment: SPR; FSFG6 immobilised via C-terminal Cys (GLC chip), low density 415 RU; association 120 s; 100 ul/min, TBT-PVP, 25 C; fit: one-to-one model
[3] = target: T1, Kap95; experiment: SPR; FSFG6 immobilised via C-terminal Cys (GLC chip), low density 415 RU; association 30 s; 100 ul/min, TBT-PVP, 25 C; fit: one-to-one model
[4] = target: T1, Kap95; experiment: SPR; FSFG6 immobilised via C-terminal Cys (GLC chip), high density 791 RU; association 15 s; 100 ul/min, TBT-PVP, 25 C; Langmuir isotherm analysis
[5] = target: T1, Kap95; experiment: SPR; FSFG6 immobilised via C-terminal Cys (GLC chip), high density 791 RU; association 60 s; 100 ul/min, TBT-PVP, 25 C; fit: one-to-one plus mass transport limitation model
[6] = target: T1, Kap95; experiment: SPR; FSFG6 immobilised via C-terminal Cys (GLC chip), high density 791 RU; association 120 s; 100 ul/min, TBT-PVP, 25 C; fit: one-to-one model
[7] = target: T1, Kap95; experiment: SPR; FSFG6 immobilised via C-terminal Cys (GLC chip), low density 415 RU; association 60 s; 100 ul/min, TBT-PVP, 25 C; Langmuir isotherm analysis
[8] = target: T1, Kap95; experiment: SPR; FSFG6 immobilised via C-terminal Cys (GLC chip), low density 415 RU; association 60 s; 100 ul/min, TBT-PVP, 25 C; fit: one-to-one plus mass transport limitation model
[9] = target: T1, Kap95; experiment: SPR; FSFG6 immobilised via C-terminal Cys (GLC chip), low density 415 RU; association 15 s; 100 ul/min, TBT-PVP, 25 C; fit: one-to-one model
[10] = target: T1, Kap95; experiment: SPR; FSFG6 immobilised via C-terminal Cys (GLC chip), medium density 550 RU; association 15 s; 100 ul/min, TBT-PVP, 25 C; fit: one-to-one model
[11] = target: T1, Kap95; experiment: SPR; FSFG6 immobilised via C-terminal Cys (GLC chip), high density 791 RU; association 120 s; 100 ul/min, TBT-PVP, 25 C; Langmuir isotherm analysis
[12] = target: T1, Kap95; experiment: SPR; FSFG6 immobilised via C-terminal Cys (GLC chip), high density 791 RU; association 30 s; 100 ul/min, TBT-PVP, 25 C; fit: one-to-one model
[13] = target: T1, Kap95; experiment: SPR; FSFG6 immobilised via C-terminal Cys (GLC chip), low density 415 RU; association 30 s; 100 ul/min, TBT-PVP, 25 C; Langmuir isotherm analysis
[14] = target: T1, Kap95; experiment: SPR; FSFG6 immobilised via C-terminal Cys (GLC chip), high density 791 RU; association 30 s; 100 ul/min, TBT-PVP, 25 C; fit: one-to-one plus mass transport limitation model

B1: FSFG6-Cys-His6 (domain or fragment)
chain: not shown
modifications: conjugated to the sensor surface through the C-terminal cysteine (maleimide)
notes: Segment of Nsp1FG (S. cerevisiae Nsp1) with six repeats of the FxFG-type region, followed by an added Cys, LE and His6
Kd [1]: 30.4 nM | Kd [2]: 8.14 nM | koff [2]: 0.00261 s⁻¹ | kon [2]: 321000 M⁻¹ s⁻¹ | Kd [3]: 5.65 nM | koff [3]: 0.00301 s⁻¹ | kon [3]: 532000 M⁻¹ s⁻¹ | Kd [4]: 64.5 nM | Kd [5]: 1.11 nM | koff [5]: 0.00314 s⁻¹ | kon [5]: 2.83e+06 M⁻¹ s⁻¹ | Kd [6]: 3.2 nM | koff [6]: 0.00219 s⁻¹ | kon [6]: 682000 M⁻¹ s⁻¹ | Kd [7]: 43.3 nM | Kd [8]: 4.52 nM | koff [8]: 0.00409 s⁻¹ | kon [8]: 905000 M⁻¹ s⁻¹ | Kd [9]: 3.42 nM | koff [9]: 0.0037 s⁻¹ | kon [9]: 1.08e+06 M⁻¹ s⁻¹ | Kd [10]: 1.46 nM | koff [10]: 0.00303 s⁻¹ | kon [10]: 2.07e+06 M⁻¹ s⁻¹ | Kd [11]: 22.4 nM | Kd [12]: 1.99 nM | koff [12]: 0.00199 s⁻¹ | kon [12]: 997000 M⁻¹ s⁻¹ | Kd [13]: 76.8 nM | Kd [14]: 0.76 nM | koff [14]: 0.0027 s⁻¹ | kon [14]: 3.57e+06 M⁻¹ s⁻¹
